# Results reported in PubChem BioAssay (NCI).
# Some salts and complexes are drawn in separate pieces, as the source files them; their charges need not balance.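 Interpolation was linear, between the two tested concentrations surrounding the appropriate level; five concentrations were tested over 48 hours in 96-well plates. GI50 = concentration required for 50% inhibition of growth. TGI is the concentration that stops growth completely.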
# Assays:
# Test in all cases: NCI-60 cell line screen, 48 h
# NCI-H322M lung = test system: NCI-H322M lung
# DMS 273 small cell lung = test system: DMS 273 small cell lung
# UO-31 renal = test system: UO-31 renal
# SNB-75 CNS = test system: SNB-75 CNS
# SK-OV-3 ovarian = test system: SK-OV-3 ovarian
# SF-539 CNS = test system: SF-539 CNS
# HT29 colon = test system: HT29 colon
# UACC-62 melanoma = test system: UACC-62 melanoma
# OVCAR-5 ovarian = test system: OVCAR-5 ovarian
# M14 melanoma = test system: M14 melanoma
# COLO 205 colon = test system: COLO 205 colon
# SK-MEL-5 melanoma = test system: SK-MEL-5 melanoma
# OVCAR-3 ovarian = test system: OVCAR-3 ovarian
# TK-10 renal = test system: TK-10 renal
# RXF 393 renal = test system: RXF 393 renal
# ACHN renal = test system: ACHN renal
# MOLT-4 leukemia = test system: MOLT-4 leukemia
# HCT-15 colon = test system: HCT-15 colon
# SN12C renal = test system: SN12C renal
# K-562 leukemia = test system: K-562 leukemia
# NCI-H522 lung = test system: NCI-H522 lung
# NCI-H23 lung = test system: NCI-H23 lung
# 786-0 renal = test system: 786-0 renal
# SK-MEL-2 melanoma = test system: SK-MEL-2 melanoma
# U251 CNS = test system: U251 CNS
# CAKI-1 renal = test system: CAKI-1 renal
# HOP-62 NSCLC = test system: HOP-62 NSCLC
# UACC-257 melanoma = test system: UACC-257 melanoma
# SF-268 CNS = test system: SF-268 CNS
# EKVX NSCLC = test system: EKVX NSCLC
# HCT-116 colon = test system: HCT-116 colon
# LOX IMVI melanoma = test system: LOX IMVI melanoma
# DLD-1 colon = test system: DLD-1 colon
# HCC-2998 colon = test system: HCC-2998 colon
# KM20L2 colon = test system: KM20L2 colon
# LXFL 529 NSCLC = test system: LXFL 529 NSCLC
# A549 NSCLC = test system: A549 NSCLC
# NCI-H226 lung = test system: NCI-H226 lung
# OVCAR-8 ovarian = test system: OVCAR-8 ovarian
# SNB-19 CNS = test system: SNB-19 CNS
# SW-620 colon = test system: SW-620 colon
# MALME-3M melanoma = test system: MALME-3M melanoma
# SF-295 CNS = test system: SF-295 CNS
# CCRF-CEM leukemia = test system: CCRF-CEM leukemia
# M19-MEL melanoma = test system: M19-MEL melanoma
# HL-60(TB) leukemia = test system: HL-60(TB) leukemia
# IGROV1 ovarian = test system: IGROV1 ovarian
# RPMI-8226 leukemia = test system: RPMI-8226 leukemia
# HOP-92 NSCLC = test system: HOP-92 NSCLC
# NCI-H460 lung = test system: NCI-H460 lung
# SK-MEL-28 melanoma = test system: SK-MEL-28 melanoma
# OVCAR-4 ovarian = test system: OVCAR-4 ovarian
structure (smiles),measurement,setting,value
CC(=O)[CH-]C(=O)c1ccccc1.CC(=O)[CH-]C(=O)c1ccccc1.O=C([O-])C([O-])(c1ccccc1)c1ccccc1.O=C([O-])C([O-])(c1ccccc1)c1ccccc1.[Ti+4],GI50,NCI-H322M lung,36.3 µM
same,TGI,NCI-H322M lung,> 100 µM
same,GI50,DMS 273 small cell lung,63.3 µM
same,TGI,DMS 273 small cell lung,> 100 µM
same,GI50,UO-31 renal,29.2 µM
same,TGI,UO-31 renal,> 100 µM
same,GI50,SNB-75 CNS,4.39 µM
same,TGI,SNB-75 CNS,> 100 µM
same,GI50,SK-OV-3 ovarian,32.2 µM
same,TGI,SK-OV-3 ovarian,> 100 µM
same,GI50,SF-539 CNS,37.2 µM
same,TGI,SF-539 CNS,> 100 µM
same,GI50,HT29 colon,39.1 µM
same,TGI,HT29 colon,> 100 µM
same,GI50,UACC-62 melanoma,43.1 µM
same,TGI,UACC-62 melanoma,> 100 µM
same,GI50,OVCAR-5 ovarian,37.2 µM
same,TGI,OVCAR-5 ovarian,> 100 µM
same,GI50,M14 melanoma,27.7 µM
same,TGI,M14 melanoma,> 100 µM
same,GI50,COLO 205 colon,34.4 µM
same,TGI,COLO 205 colon,> 100 µM
same,GI50,SK-MEL-5 melanoma,33.2 µM
same,TGI,SK-MEL-5 melanoma,> 100 µM
same,GI50,OVCAR-3 ovarian,53.2 µM
same,TGI,OVCAR-3 ovarian,> 100 µM
same,GI50,TK-10 renal,> 100 µM
same,TGI,TK-10 renal,> 100 µM
same,GI50,RXF 393 renal,36.2 µM
same,TGI,RXF 393 renal,> 100 µM
same,GI50,ACHN renal,> 100 µM
same,TGI,ACHN renal,> 100 µM
same,GI50,MOLT-4 leukemia,20.8 µM
same,TGI,MOLT-4 leukemia,> 100 µM
same,GI50,HCT-15 colon,59.8 µM
same,TGI,HCT-15 colon,> 100 µM
same,GI50,SN12C renal,54.9 µM
same,TGI,SN12C renal,> 100 µM
same,GI50,K-562 leukemia,28.7 µM
same,TGI,K-562 leukemia,> 100 µM
same,GI50,NCI-H522 lung,21.3 µM
same,TGI,NCI-H522 lung,82.6 µM
same,GI50,NCI-H23 lung,24.4 µM
same,TGI,NCI-H23 lung,> 100 µM
same,GI50,786-0 renal,45.1 µM
same,TGI,786-0 renal,> 100 µM
same,GI50,SK-MEL-2 melanoma,30 µM
same,TGI,SK-MEL-2 melanoma,> 100 µM
same,GI50,U251 CNS,42.6 µM
same,TGI,U251 CNS,> 100 µM
same,GI50,CAKI-1 renal,70.2 µM
same,TGI,CAKI-1 renal,> 100 µM
same,GI50,HOP-62 NSCLC,46.1 µM
same,TGI,HOP-62 NSCLC,> 100 µM
same,GI50,UACC-257 melanoma,71.5 µM
same,TGI,UACC-257 melanoma,> 100 µM
same,GI50,SF-268 CNS,38 µM
same,TGI,SF-268 CNS,> 100 µM
same,GI50,EKVX NSCLC,47.4 µM
same,TGI,EKVX NSCLC,> 100 µM
same,GI50,HCT-116 colon,34.2 µM
same,TGI,HCT-116 colon,> 100 µM
same,GI50,LOX IMVI melanoma,33.4 µM
same,TGI,LOX IMVI melanoma,> 100 µM
same,GI50,DLD-1 colon,56.2 µM
same,TGI,DLD-1 colon,> 100 µM
same,GI50,HCC-2998 colon,63.3 µM
same,TGI,HCC-2998 colon,> 100 µM
same,GI50,KM20L2 colon,41.6 µM
same,TGI,KM20L2 colon,> 100 µM
same,GI50,LXFL 529 NSCLC,23.9 µM
same,TGI,LXFL 529 NSCLC,> 100 µM
same,GI50,A549 NSCLC,65.5 µM
same,TGI,A549 NSCLC,> 100 µM
same,GI50,NCI-H226 lung,20.2 µM
same,TGI,NCI-H226 lung,77.3 µM
same,GI50,OVCAR-8 ovarian,41.5 µM
same,TGI,OVCAR-8 ovarian,> 100 µM
same,GI50,SNB-19 CNS,54.5 µM
same,TGI,SNB-19 CNS,> 100 µM
same,GI50,SW-620 colon,34.4 µM
same,TGI,SW-620 colon,> 100 µM
same,GI50,MALME-3M melanoma,32.4 µM
same,TGI,MALME-3M melanoma,> 100 µM
same,GI50,SF-295 CNS,36.2 µM
same,TGI,SF-295 CNS,> 100 µM
same,GI50,CCRF-CEM leukemia,18.8 µM
same,TGI,CCRF-CEM leukemia,> 100 µM
same,GI50,M19-MEL melanoma,34.7 µM
same,TGI,M19-MEL melanoma,> 100 µM
same,GI50,HL-60(TB) leukemia,17.2 µM
same,TGI,HL-60(TB) leukemia,50.6 µM
same,GI50,IGROV1 ovarian,57.3 µM
same,TGI,IGROV1 ovarian,> 100 µM
same,GI50,RPMI-8226 leukemia,30.2 µM
same,TGI,RPMI-8226 leukemia,> 100 µM
same,GI50,HOP-92 NSCLC,21.6 µM
same,TGI,HOP-92 NSCLC,57.8 µM
same,GI50,NCI-H460 lung,51.1 µM
same,TGI,NCI-H460 lung,> 100 µM
same,GI50,SK-MEL-28 melanoma,35.3 µM
same,TGI,SK-MEL-28 melanoma,> 100 µM
same,GI50,OVCAR-4 ovarian,26.8 µM
same,TGI,OVCAR-4 ovarian,> 100 µM
